According to patent US20230044690A1, “PROGESTERONE FORMULATION TO TRIGGER OVULATION AND PROVIDE LUTEAL PHASE SUPPORT” (AUGUSTA UNIVERSITY RESEARCH INSTITUTE, INC., priority 2019, published 2023):

System: ovulation
Assay: Case study 3, first controlled stimulation cycle: Clomiphene citrate, trigger shot with 10,000 IU Novarel
Type: in vivo, human
Conditions: 2 weeks post trigger, 100 mg Clomiphene citrate 5 days, 200 mg progesterone suppositories daily
Protocol: In the first controlled stimulation cycle, the patient received 100 mg Clomiphene citrate (CC) for 5 days starting on the 5th day of their period. […] The additional luteal phase support was initiated on day 3 after the trigger shot with 10,000 IU of Novarel, followed by daily suppositories with 200 mg of progesterone by suppositories.

For “Novarel: trigger shot with 10,000 IU of Novarel”, the “Patient's hCG” value was “negative”.
